The test concerns the target mouse GOAT (Mus musculus, UniProt P0C7A3). The test can be described thus: ghrelin radio-octanoylation assay (Yang et al.), Sf9 membrane fractions. To be noted: Table 1, inhibitory activity against GOAT, cells printed in nM. As for the experimental part: In vitro activity was quantified using the octanoylation assay developed by Yang et al. (2008, Proc. Natl. Acad. Sci. USA 105:10750-10755). No pure or soluble form of GOAT that retains enzymatic activity is thus far available. Recombinant poly-His-tagged ghrelin was incubated with radiolabeled octanoyl CoA and membrane fractions isolated from Sf9 cells infected with a GOAT-encoding baculovirus. Recovery of acyl- and des-acyl ghrelin using a Ni^2+ affinity column was followed by scintillation counting to determine the extent of acyltransferase activity, which was reported as a percentage of control.
Thiosarcosine derived peptidomimetic Compound 1 (of Example 1.1) and truncated analog Compound 2 (of Example 1.2), which served as a negative control, were screened for GOAT-inhibiting activity using membrane fractions prepared from Sf9 cells infected with baculovirus encoding mouse GOAT as a source of the acyltransferase. The assay detected specific acyl transfer from tritiated octanoyl-CoA to recombinant His-tagged proghrelin.

Sequences of proteins named here, by UniProt entry; tags and fusion partners are left off.
UniProt P0C7A3, whole entry: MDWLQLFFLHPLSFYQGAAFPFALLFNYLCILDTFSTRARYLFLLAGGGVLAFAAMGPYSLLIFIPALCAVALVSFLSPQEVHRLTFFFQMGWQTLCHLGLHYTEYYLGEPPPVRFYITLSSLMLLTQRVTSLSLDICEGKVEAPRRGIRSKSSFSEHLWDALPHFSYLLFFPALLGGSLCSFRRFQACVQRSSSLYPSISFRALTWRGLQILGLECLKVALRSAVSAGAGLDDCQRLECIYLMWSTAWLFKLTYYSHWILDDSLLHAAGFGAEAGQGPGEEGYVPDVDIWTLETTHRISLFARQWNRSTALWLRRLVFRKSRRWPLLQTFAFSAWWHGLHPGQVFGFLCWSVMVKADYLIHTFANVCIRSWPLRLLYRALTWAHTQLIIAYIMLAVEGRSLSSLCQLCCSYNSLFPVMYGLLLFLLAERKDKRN

On to `CCCC[C@H]1C[C@@H](C(=O)NC[C@H]2CCCN2C(=O)[C@@H](NC(=S)CNC)C(C)(C)C)C1`, for which the IC50 amounted to 30 nM.
`CCCC[C@H]1C[C@H](C(=S)NC[C@H]2CCCN2C(=O)[C@@H](NC(=S)CN)C(C)(C)C)C1` [Entry 16, (1s,3R)—N—(((R)-1-((S)-2-(2-AMINOETHANETHIOAMIDO)-3,3-DIMETHYLBUTANOYL)PYRROLIDIN-2-YL)METHYL)-3-BUTYLCYCLOBUTANECARBOTHIOAMIDE]: the IC50 came out at 70 nM. Against the preceding compound, the IC50 is about 2.3-fold higher.

Source of the values: patent publication US20170275249A1, “SMALL LIPOPEPTIDOMIMETIC INHIBITORS OF GHRELIN O-ACYL TRANSFERASE” (THE REGENTS OF THE UNIVERSITY OF CALIFORNIA, priority 2014, published 2017).
